Data taken from ChEMBL document CHEMBL2057123, “Design and synthesis of novel lactate dehydrogenase A inhibitors by fragment-based lead generation” (J Med Chem, 2012).

How the values were obtained:
[1] = biological target: T1, L-lactate dehydrogenase A chain (Homo sapiens, UniProt P00338); test: Binding affinity to 6-His-tagged human LDHA (2 to 322 amino acid residue) expressed in Escherichia coli BL21 (DE3) cells by NMR analysis in presence of NAD+
Procedure, shortened: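 Ligand-observed NMR at 298 K, 600 MHz, in 100 mM HEPES pH 7.5, 2 mM TCEP, 0.02% sodium azide, with 1 mM NAD⁺ present. Binding was detected by WaterLOGSY and T₁ρ-filtered 1D spectra (LDHA 40−48 μM monomer). […] Single experiment.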

[2] = biological target: T1, L-lactate dehydrogenase A chain; test: Binding affinity to 6-His-tagged human LDHA (2 to 322 amino acid residue) expressed in Escherichia coli BL21 (DE3) cells by SPR analysis

O=C(O)c1nsnc1O
Activity [1]: Active

Cc1nc2ccc(NC(=O)CCNC(=O)CCCc3ccc(CC(C(=O)O)C(=O)O)cc3)cc2s1
Kd [2]: 93 nM

Calls of active or inactive are those of the source. The calls are words filed in the database; no cut-off is given here.
